Experimental data taken from patent US10123969B2, “Osmotic enhancement of drug/therapeutic delivery to the brain following infusion or injection into the cerebrospinal fluid” (Wisconsin Alumni Research Foundation, priority 2015, dated 2018).

Assay: Estimated mannitol concentration in CSF after intracisternal infusion
Details: assuming instant mixing

concentration of mannitol in the CSF (80 microliters of 0.27 M mannitol in 250 microliters of CSF): approximately 0.086 M
concentration of mannitol in the CSF (80 microliters of 0.75 M mannitol into approximately 250 microliters of CSF): approximately 0.24 M
SMILES: OC[C@@H](O)[C@@H](O)[C@H](O)[C@H](O)CO [mannitol]
